Source: patent US5260210A, “Blood-brain barrier model” (priority 1990, dated 1993)

Legend:
[1] = system: Madin-Darby Canine Kidney epithelial cells; experiment: Flux of ^125 I-labeled albumin across MDCK epithelial cell monolayers; format: in vitro ADME; settings: resistance greater than 200 ohm-cm^2
Description: (§1) The flux of ^125 I-labeled albumin across monolayers of primary cultures of bovine retina endothelial cells and of Madin-Darby Canine Kidney epithelial cells disposed on 0.4μ pore-sized polycarbonate filters was determined as a function of tight junctions as reflected in trans-monolayer electrical resistance of each cell type. The results of such experiments are plotted in FIG. 2. The height of the bars in the histogram is a reflection of leakage of albumin through the junctions between cells--the higher the bar, the greater the leakage of albumin.

[2] = system: bovine retina endothelial cells; format: in vitro ADME
Description: as §1

## albumin: ^125 I-labeled albumin
[1]
  albumin flux: virtually abolished
[2]
  albumin flux: Substantial flux
  reduction of albumin flux: 75%
